In patent US20030148462A1, “Dual inhibition of sister chromatid separation at metaphase” (President and fellows of Harvard College, priority 2001, published 2003):

Test system: CDC2
Conditions: high-Δ90 extract

SMILES: CC[C@H](CO)Nc1nc(NCc2ccccc2)c2ncn(C(C)C)c2n1 [roscovitine]
- CDC2 activity (histone H1 kinase): reduced the CDC2 activity to the level of a low-Δ90 extract
